Results: PubChem BioAssay AID1224905 (ICCB-Longwood Screening Facility, Harvard Medical School, 2016)
About 880 (0.42%) of roughly 210,000 compounds were called active. For the sample, actives were picked, then their nearest neighbours and some compounds at random. Values without a mark were called inactive.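 Rule for the calls: active = replicate mean at 85% of control or lower with very high polarization wells dropped (limit read from the data); inactive = the rest.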

Protein sequences, listed by entry. Tags and fused reporters are not part of them.
UniProt P08753, whole entry, looked up: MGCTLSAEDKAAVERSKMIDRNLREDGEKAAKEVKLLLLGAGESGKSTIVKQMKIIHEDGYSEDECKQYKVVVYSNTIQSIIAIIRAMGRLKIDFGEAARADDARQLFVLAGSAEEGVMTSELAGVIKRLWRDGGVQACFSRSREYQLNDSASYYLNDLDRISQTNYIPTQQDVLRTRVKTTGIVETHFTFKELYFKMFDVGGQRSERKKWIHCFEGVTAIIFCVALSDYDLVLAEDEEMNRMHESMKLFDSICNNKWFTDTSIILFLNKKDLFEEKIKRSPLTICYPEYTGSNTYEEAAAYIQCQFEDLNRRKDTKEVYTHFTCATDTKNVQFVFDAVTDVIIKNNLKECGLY

What follows are compounds tested against Guanine nucleotide-binding protein G(i) subunit alpha-3 (Rattus norvegicus) (UniProt P08753) (assay: inhibitors of GIV peptide binding to Galpha-i3, primary screen, biochemical, fluorescence polarization, FITC-GIV GBA peptide, rat Galphai3 (AID 1224905)). Details: 90 min, stronger effect = lower value, scaled: aluminum fluoride 0%, vehicle 100%.

Row | SMILES | percent of control (FP)
1 | O=C(NCc1ccco1)c1cc2nc(-c3ccc(Cl)c(Cl)c3)cc(C(F)(F)F)n2n1 | 101%
2 | Cn1c(=O)n(C)c2cc(N3CCOCC3)c(NS(=O)(=O)c3ccc4c(c3)CCCC4)cc21 | 103%
3 | O=C(O)c1cc(NS(=O)(=O)c2cc(F)ccc2F)cnc1N1CCC(N2CCCCC2)CC1 | 93.7%
4 | O=C(O)c1cc(NS(=O)(=O)c2ccc3c(c2)CCCC3)cnc1N1CCOCC1 | 80.8% (active)
5 | O=C(CSc1nnc(C2COc3ccccc3O2)n1-c1ccccc1)c1cccc([N+](=O)[O-])c1 (stereo not given) | 99.2%
6 | COCCNC(=O)Cn1cc(/C=C2\C(=O)NC(=O)N(C3CCCCC3)C2=O)c2ccccc21 | -38.3% (active)
7 | COc1ccccc1N1C(=O)NC(=O)/C(=C/c2cn(C(C)=O)c3ccccc23)C1=O | 118%
8 | Cc1cc(Br)ccc1N1C(=O)NC(=O)/C(=C/c2cn(CC(=O)N3CCOCC3)c3ccccc23)C1=O | 103%
9 | NC(=O)c1nsc2c(=O)n(CC(=O)NCc3ccco3)cnc12 | 95.4%
10 | CCOC(=O)c1c(NC(=S)NC(=O)c2ccccc2)sc2c1CC(C)(CC)OC2 (stereo not given) | 107%
11 | Cc1cc(C)c2[nH]c(=O)c(NC(N)=S)nc2c1 | 109%
12 | Cc1c(C(=O)NCC2COc3ccccc3O2)sc2ncnc(N3CCCCC3C)c12 (stereo not given) | 103%
13 | COc1ccccc1N(Cc1nc2nc(C)cc(C)n2n1)C(=O)C(C)(C)C | 105%
14 | COc1cc(-c2noc(-c3cc(-c4cc(C)ccc4C)n[nH]3)n2)ccc1OC(C)C | 109%
15 | O=C(NCc1ccc2c(c1)OCO2)C1CCCN(S(=O)(=O)N2CCOCC2)C1 (stereo not given) | 105%
16 | CN1C(=O)/C(=C/c2ccco2)SC1=Nc1cccc(C(=O)O)c1 | 103%
17 | CN1CCN(NC(=O)CCN2C(=O)/C(=C\c3ccco3)SC2=S)CC1 | 106%
18 | O=C(O)CCC(C(=O)O)N1C(=O)/C(=C\c2ccco2)SC1=S (stereo not given) | 79.9% (active)
19 | COc1ccc(S(=O)(=O)N2CCC(NC(=O)NCc3ccc(C)cc3)CC2)cc1 | 98.6%
20 | O=C(NCCCN1CCC(N2CCCCC2)CC1)c1nnc(C(=O)Nc2ccccc2)s1 | 101%
21 | O=C(CCc1ccccc1)N1CCN(C(=O)c2cc3cc(Br)ccc3[nH]2)CC1 | 108%
22 | CN1C=C/C(=C\C=C2/C=Nc3ccccc32)c2ccccc21 | -76.3% (active)

Row | SMILES | percent of control (FP)
23 | CCCCN(CCCNC(=O)Nc1cn(CC(C)C)c(=O)c2ccccc12)Cc1ccccc1 | 98.7%
24 | COc1ccc(S(=O)(=O)Nc2cc(C(=O)O)cnc2N2CCC(Cc3ccccc3)CC2)cc1 | 102%
25 | COC(=O)COc1ccc(/C=C2\C(=O)NC(=S)N(c3ccc(Br)cc3)C2=O)cc1OC | 104%
26 | Cc1ccc(N2C(=O)/C(=C/c3ccc(OCC(=O)O)c(Br)c3)C(=O)NC2=S)cc1 | 82.1% (active)
27 | COc1ccc(N2C(=O)/C(=C/c3cc(Cl)c(OCC(=O)O)c(Cl)c3)C(=O)NC2=S)cc1 | 94.6%
28 | Cc1oc(C2CCN(C(=O)Cc3ccsc3)CC2)nc1C(=O)N1CCCC1 | 99.3%
29 | CC(C)CC(C(=O)Nc1ccc(Cl)cc1)N1C(=O)c2ccccc2C1=O (stereo not given) | 108%
30 | CCOC(=O)c1c(NC(=O)C(C)Sc2nnc(CNC(=O)c3cccs3)n2C2CCCCC2)sc2c1CCCC2 (stereo not given) | 109%
31 | CC[n+]1c(/C=C/C=C2\N(C)c3ccccc3C2(C)C)n(-c2ccccc2)c2ccc(Cl)cc21 | -32.2% (active)
32 | CC[n+]1c(C)n(-c2ccccc2)c2ccc(N)cc21 | 101%
33 | COc1ccccc1CNC(=O)C1CCCN1c1nn2c(=O)cc(C)nc2s1 (stereo not given) | 96.8%
34 | O=C(/C=C/c1ccccc1)Nc1cc(C(=O)N2CCc3ccccc3C2)ccc1N1CC2CC(C1)c1cccc(=O)n1C2 (stereo not given) | 108%
35 | CCN(CC)c1cc(NC2CCCCC2)c2c3c(onc13)-c1ccccc1C2=O | -7.19% (active)
36 | CCNc1cc(Nc2ccccc2)c2c3c(onc13)-c1ccccc1C2=O | 104%
37 | CCOC(=O)N1CCN(c2cc(Nc3c(C)cc(C)cc3C)c3c4c(onc24)-c2ccccc2C3=O)CC1 | 140%
38 | CC1CCN(S(=O)(=O)c2ccc3nn(CC(=O)OC(C)C)c(=O)n3c2)CC1 | 103%
39 | COc1ccccc1-c1c(C(F)(F)F)oc2c(CN3CCN(C)CC3)c(O)ccc2c1=O | 102%
40 | Cc1nn(CCC(=O)NC2CCCC2)c(=O)c2nn(-c3ccccc3)c(C)c12 | 98.5%
41 | CC(=O)Nc1ccc(Nc2c3c4c(cccc4[nH]c2=O)C(=O)c2ccccc2-3)cc1 | 60.9% (active)
42 | CC(=O)Nc1ccc(NS(=O)(=O)c2cc(S(=O)(=O)Nc3ccc(NC(C)=O)cc3)c3cccc4c3c2NC4=O)cc1 | 108%
43 | CC(C)c1ccc(NC(=O)c2ccc3c(O)c(S(=O)(=O)c4ccccc4)c(=O)[nH]c3c2)cc1 | 98.9%
44 | CCC(C)OC(=O)C1=C(C)NC2=C(C(=O)CC(c3ccc(OC)cc3)C2)C1c1cc2c(cc1[N+](=O)[O-])OCO2 (stereo not given) | 103%

Row | SMILES | percent of control (FP)
45 | CCCCc1nnc2sc(-c3cccc(N(C)C)c3)nn12 | 97.3%
46 | Cc1nn(C)c(C)c1CCN(C)C(=O)Nc1ccc(Br)cc1F | 105%
47 | COc1ccc(-n2ccc(=O)c(-c3nc(-c4ccc(F)c(Cl)c4)no3)n2)cc1 | 102%
48 | Fc1cccc(CNC2=NCCNC23CCCCCC3)c1 | 112%
49 | COC1=C(N2CCOCC2)C(=O)c2ccccc2C1=O | 81.8% (active)
50 | COc1ccc(N2CCN(C(C)=C3C(=O)c4ccccc4C3=O)CC2)cc1 | 97.8%
51 | Cc1cc(N2CCOCC2)ccc1C=C1C(=O)c2ccccc2C1=O | 123%
52 | Nc1nc(=O)n(C2OC(CO)C(O)C2O)cc1Br (stereo not given) | 107%
53 | CCN1CCN(Cc2c(O)ccc3c(=O)c(Oc4ccccc4Br)c(C(F)(F)F)oc23)CC1 | 96.7%
54 | Cn1nc(-c2ccccc2F)c2cc(C(=O)Oc3ccc4cnccc4c3)sc21 | 109%
55 | N#CC1=C2Sc3ccccc3N2CC1=O | -54.5% (active)
56 | CCOC(=O)c1[nH]c(=O)[nH]c1CSc1nnc(SCc2[nH]c(=O)[nH]c2C(=O)OCC)s1 | 118%
57 | N#CSc1cc(SC#N)c(N)nc1N | 16% (active)
58 | COc1cccc(N/C(SCc2ccccc2C)=C(/C#N)C(=O)NCCc2ccc(OC)c(OC)c2)c1 | 104%
59 | CCC(C)OC(=O)C1=C(C)NC(=O)NC1c1ccc(OC)c(OCc2ccccc2)c1 (stereo not given) | 99.4%
60 | CCOc1cc(/C=C2/C(=O)N(c3nn[nH]n3)N=C2C)cc(Cl)c1OCC | 74.3% (active)
61 | CCOC(=O)c1ccc(N2N=C(C(F)(F)F)/C(=C/c3cc(Cl)c(O)c(OC)c3)C2=O)cc1 | 109%
62 | COc1cc(C=C2C(=O)NC(=O)NC2=O)cc(Cl)c1OCCOc1ccc(C)cc1 | 103%
63 | O=C(C1CCN(c2nc(-c3ccc(Cl)cc3)no2)CC1)N1CCC(N2CCCCC2)CC1 | 104%
64 | CCSCCOC(=O)C1=C(C)N(C)C(=O)NC1c1ccccc1OCc1ccccc1 (stereo not given) | 104%
65 | CC(=O)N(CCN(C)C)c1nc2cc3c(cc2s1)OCO3 | 100%
66 | c1c2c(cc3sc(N4CCCCC4)nc13)OCCO2 | 101%

Row | SMILES | percent of control (FP)
67 | c1csc(Nc2nc3cc4c(cc3s2)OCO4)n1 | -40.2% (active)
68 | O=C(CCn1nnc2cc(S(=O)(=O)N3CCCC3)ccc21)N1CCN(c2ccccn2)CC1 | 112%
69 | Cc1c(CNCCc2ccc(S(N)(=O)=O)cc2)c(C(=O)O)c(C)n1Cc1ccc(F)cc1 | 98.6%
70 | CC1(C)C2CCC1(CS(=O)(=O)Nc1cc(C(=O)N3CCOCC3)ccc1N1CC3CC(C1)c1cccc(=O)n1C3)C(=O)C2 (stereo not given) | 106%
71 | O=C(O)c1cc(N2C(=O)C3C4C=CC(CO)(O4)C3C2=O)ccc1Cl (stereo not given) | 103%
72 | CCN(CC)c1ccc2cc(C(=O)NC(C)=O)c(=Nc3ccc(F)cc3F)oc2c1 | 117%
73 | CCN(CC)c1ccc2cc(C(=O)NC(C)=O)c(=Nc3ccccc3OC)oc2c1 | 114%
74 | CCN(CC)c1ccc2cc(C(N)=O)/c(=N\NC(=O)c3ccccc3)oc2c1 | -46.7% (active)
75 | O=S(=O)(NCc1ccco1)c1ccc(Cl)cc1 | 101%
76 | Cc1ccc2ccc3cc(C(=O)NC4CCCC4)nc3c2[nH]1 | 112%
77 | O=C1/C(=C/c2ccc([N+](=O)[O-])cc2)C=C(c2ccccc2)N1c1cccc(Cl)c1Cl | 109%
78 | O=C1/C(=C/c2ccc(Br)cc2)C=C(c2ccccc2)N1c1ccccc1Br | 119%
79 | COc1ccccc1N1C(=O)/C(=C/c2ccc(Cl)cc2)C=C1c1ccccc1 | 78.1% (active)
80 | CC(C)NC(=O)C1=CC(c2ccco2)=NS(=O)(=O)N1C | 107%
81 | Cc1[nH]c(C(=O)Nc2ccc(F)cc2)c(C)c1S(=O)(=O)N1CCCC1 | 112%
82 | Cc1cc(C)nc(NS(=O)(=O)c2ccc(NC(=O)C(C)Oc3ccc(Cl)cc3Cl)cc2)n1 (stereo not given) | 111%
83 | CC1=NOC(=O)C1C(c1cccc(Br)c1)c1c(C)[nH]n(-c2ccccc2)c1=O (stereo not given) | 48.2% (active)
84 | Cc1[nH]n(-c2ccccc2)c(=O)c1C(c1ccc(C(F)(F)F)cc1)c1c(C)[nH]n(-c2ccccc2)c1=O | 92.3%
85 | COc1ccc(C(=O)Oc2ccc(C(c3c(C)[nH]n(-c4ccccc4)c3=O)c3c(C)[nH]n(-c4ccccc4)c3=O)cc2)cc1 | 111%
